Literature values, collected in US10751387B2, “Pharmacological therapy for neuronopathic Gaucher disease” (priority 2016, dated 2020).

Tested on: cells
Conditions: cited from earlier work

Substance: Ryanodine
- Toxicity to cells: toxic to cells
